{"sequences": {"note": "Sequences of proteins named here, by UniProt entry; tags and fusion partners are left off.", "UniProt B0FL73, whole entry": "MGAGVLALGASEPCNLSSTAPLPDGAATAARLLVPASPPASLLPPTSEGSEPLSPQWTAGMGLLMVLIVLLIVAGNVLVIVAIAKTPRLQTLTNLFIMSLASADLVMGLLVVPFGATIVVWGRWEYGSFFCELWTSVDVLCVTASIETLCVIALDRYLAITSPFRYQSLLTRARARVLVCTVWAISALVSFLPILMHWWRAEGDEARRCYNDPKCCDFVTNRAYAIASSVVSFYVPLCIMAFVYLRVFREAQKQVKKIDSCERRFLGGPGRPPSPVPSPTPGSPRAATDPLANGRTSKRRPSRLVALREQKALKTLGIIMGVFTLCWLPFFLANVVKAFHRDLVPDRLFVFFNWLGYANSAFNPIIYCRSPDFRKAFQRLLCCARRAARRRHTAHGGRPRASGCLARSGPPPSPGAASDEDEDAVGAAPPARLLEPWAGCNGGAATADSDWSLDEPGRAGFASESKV"}, "source": "BindingDB's records for doi:10.1021/jm00354a003", "about": "(1983)", "key": {"[1]": {"target": "T1, Beta-1 adrenergic receptor (Cavia porcellus, UniProt B0FL73)"}, "[2]": {"target": "T1, Beta-1 adrenergic receptor", "experiment": "Ability to block Beta-1 adrenergic receptor in guinea pig right atria preparation at a duration of 3h"}}, "data": [{"smiles": "COC(=O)CCc1ccc(OCC(O)CNC(C)C)cc1", "note": "(configuration not stated) [Brevibloc]", "values": [{"measurement": "Kd", "setting": "[1]", "result": 1, "unit": "pM"}, {"measurement": "Kd", "setting": "[2]", "result": 1, "unit": "pM"}]}]}
